The target in data set [1] is T1, NAD(P)H:quinone oxidoreductase (NQO1) (Rattus norvegicus, UniProt P05982). The data set is described as follows: Steady-state kinetics of reduction by NAD(P)H:quinone oxidoreductase (NADPH oxidation). The conditions noted are these: pH 7.0, 25 °C, NADPH 150 µM. As to the method:
The determined initial rates of the reduction of the whole set of BFXs by NQO1 followed the complete hyperbolic dependence upon concentrations of the compounds, varying in the range of 12.5–400 µM (data not shown). […] The steady-state kinetic measurements of the enzymatic reduction of BFXs were carried out spectrophotometrically applying Lambda 25 (PerkinElmer, Waltham, MA, USA) or Carry 60 (Agilent Technologies, Santa Clara, CA, USA) UV-VIS spectrophotometers in 0.1 M K-phosphate buffer solution (pH 7.0) containing 1 mM EDTA, at 25 °C. The initial enzymatic rates were monitored according to NADPH oxidation at 340 nm (∆ε340 = 6.22 mM^−1·cm^−1), using 1.0 or 0.2 cm optical path cells, and corrected for the formation of 340 nm-absorbing products after recording their spectra in NADPH-regeneration system (10 U/mL glucose-6-phosphate dehydrogenase, 10 mM glucose-6-phosphate, and 15–20 μM NADPH). For certain BFXs, the reduction of the compounds was measured following NADPH oxidation at wavelengths of isosbestic points of their absorbance spectra, obtained in the NADPH-regeneration system, i.e., at 305 nm (∆ε305 = 2.45 mM^−1·cm^−1) for 5-Cl-benzofuroxan, 350 nm (∆ε350 = 5.64 mM^−1·cm^−1) for 5-methoxy-benzofuroxan, 370 nm (∆ε370 = 2.60 mM^−1·cm^−1) for 5-ethoxybenzofuroxan, and 340 nm (∆ε340 = 6.22 mM^−1·cm^−1) for benzodifuroxan. The rates were additionally corrected for the intrinsic NADPH-oxidase activity of P-450R (0.11 s^−1) and NQO1 (0.05 s^−1). In separate experiments, the reduction of cytochrome c (50 μM) in the presence of NADPH and BFXs was measured spectrophotometrically according to an increase in absorbance at 550 nm by using ∆ε550 = 20.0 mM^−1·cm^−1. BFX-mediated oxygen uptake was monitored polarographically by Clark electrode (Digital Model 10, Rank Brothers Ltd., Cambridge, UK), at 25 °C. […]

Protein sequences, listed by entry. Tags and fused reporters are not part of them. Residues count along the entry.
UniProt P05982, 2-274 limits assumed: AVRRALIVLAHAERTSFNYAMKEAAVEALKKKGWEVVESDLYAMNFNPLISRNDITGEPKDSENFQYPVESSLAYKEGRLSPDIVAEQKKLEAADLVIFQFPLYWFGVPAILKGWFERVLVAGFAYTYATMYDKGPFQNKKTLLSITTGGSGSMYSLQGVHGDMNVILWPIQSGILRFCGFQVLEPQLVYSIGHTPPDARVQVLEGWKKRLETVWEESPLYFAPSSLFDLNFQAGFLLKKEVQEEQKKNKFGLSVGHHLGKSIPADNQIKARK

For data set [2] the following is noted: experimental; ref [16],[24]; cited from earlier work.
The target of data set [3] is T1, NAD(P)H:quinone oxidoreductase (NQO1). Nature of the data set: Inhibition of NQO1 quinone reductase reaction (menadione-mediated reduction of cytochrome c). The conditions noted are these: BFXs, 4 µM menadione, 50 µM cytochrome c. From the text: In an attempt to predict other possible factors which may influence the reactivity of BFXs, we examined the inhibition of NQO1 by BFXs in NAD(P)H:quinone reductase reaction of NQO1 by measuring the initial rates of menadione-mediated reduction of cytochome c. This may provide some information about the character of the compounds binding to the active center of the enzyme ([19, 20], and references therein).
The inhibition of NQO1 by BFXs was examined by measuring the initial rates of 2-methyl-1,4-naphthoquinone-mediated reduction of 50 μM cytochrome c at 550 nm (∆ε550 = 19.2 mM^−1·cm^−1), in the presence of 4 μM 2-methyl-1,4-naphthoquinone, 10–100 μM NADPH, and various fixed concentrations of BFXs as inhibitors. […]
where Eo and Er are the oxidized and reduced enzyme forms, respectively, kcat/Km is the apparent second-order rate constant of NADPH oxidation, Ki is the inhibition constant, and β parameter represents the completeness of enzyme inhibition (0 ≤ β ≤ 1). Based upon this scheme, the hyperbolic dependence of kcat/Km, expressed as (kcat/Km)0/(kcat/Km) ratio on inhibitor concentrations is obtained (Equation (9)): […]
In this study, the Ki and εmax values were determined by fitting the experimental data to the standard hyperbolic expression of the inhibition degree (εI) (=1 − (kcat/Km)/(kcat/Km)0) versus [I] […]

Data set [4] has the same target. As to conditions: read-out: Ki, inhibition constant of NQO1; NACs; ref [20]; cited from earlier work.

Like-named read-outs stand apart in the source and are kept apart here. This is a selection: effects in other tests are not listed, and their absence says nothing.

As for `O=[N+]([O-])c1cccc([N+](=O)[O-])c1`, the “kcat, catalytic constant of reduction by NQO1” value (“kcat … of reduction by NQO1” for short) in data set [1] came out at 0.3 s⁻¹. Moreover, in data set [2], the “E^1_7, single-electron reduction potential” value was −0.345 V.
On to `[O-][n+]1onc2c1c1no[n+]([O-])c1c1no[n+]([O-])c21`, for which, in data set [1], the “kcat … of reduction by NQO1” value was determined as 2.6 ± 0.3 s⁻¹. Also, in data set [3], the “εmax, maximal degree of inhibition of NQO1” value stood at 100%. For the same compound, the Ki in data set [3] (read-out: Ki, inhibition constant of NQO1, competitive with respect to NADPH) came to 46 µM.
Turning to `Cc1c([N+](=O)[O-])cc([N+](=O)[O-])cc1[N+](=O)[O-]`, the “kcat … of reduction by NQO1” value in data set [1] stood at 1.0 s⁻¹. Further, in data set [2], the “E^1_7, single-electron reduction potential” value is −0.253 V. The inhibition constant (Ki) in data set [4] is 80 µM.

As usually defined, the Ki is the equilibrium dissociation constant of an inhibitor or competing ligand from its target.

The record behind these values is publication PMC4284768, “The Study of NADPH-Dependent Flavoenzyme-Catalyzed Reduction of Benzo[1,2-c]1,2,5-oxadiazole N-Oxides (Benzofuroxans)” (2014).
